Earlier results in EP1148783B1, “CONVERTING COX INHIBITION COMPOUNDS THAT ARE NOT COX-2 SELECTIVE INHIBITORS TO DERIVATIVES THAT ARE COX-2 SELECTIVE INHIBITORS” (priority 1999, dated 2000).

Sequences of proteins named here, by UniProt entry; tags and fusion partners are left off. Residues count along the entry.
UniProt P23219, 24-599: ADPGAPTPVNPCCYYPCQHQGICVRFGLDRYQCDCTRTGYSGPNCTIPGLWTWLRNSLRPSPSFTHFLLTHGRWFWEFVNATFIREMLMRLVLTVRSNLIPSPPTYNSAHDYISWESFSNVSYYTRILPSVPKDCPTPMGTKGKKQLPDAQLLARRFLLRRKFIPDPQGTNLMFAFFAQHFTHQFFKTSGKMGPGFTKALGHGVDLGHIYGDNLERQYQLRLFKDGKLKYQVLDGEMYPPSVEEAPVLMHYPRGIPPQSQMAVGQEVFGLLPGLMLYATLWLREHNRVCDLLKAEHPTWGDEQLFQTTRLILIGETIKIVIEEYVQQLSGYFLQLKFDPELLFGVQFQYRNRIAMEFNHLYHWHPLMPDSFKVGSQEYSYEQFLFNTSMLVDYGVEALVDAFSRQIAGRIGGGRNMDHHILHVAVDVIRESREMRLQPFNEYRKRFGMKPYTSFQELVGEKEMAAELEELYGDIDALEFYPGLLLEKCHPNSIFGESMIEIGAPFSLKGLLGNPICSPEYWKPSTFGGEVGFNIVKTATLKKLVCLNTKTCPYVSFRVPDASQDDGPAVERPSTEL

Biological target: COX-1 (Homo sapiens, UniProt P23219)
Settings: background statement; cited from earlier work

For `CSc1ccc(/C=C2/C(C)=C(CC(=O)O)c3cc(F)ccc32)cc1` [sulindac sulfide], which “fold more potent inhibitor against COX-1 than against COX-2” value is on record?
Its value is 40 fold.
